The results in this text go back to PubChem BioAssay AID1347120 (National Center for Advancing Translational Sciences (NCATS), 2019).

The list shows a part of the results, in another mix than the full data. Records with an inconclusive call do not appear. The source made the active and inactive calls. Calls follow the shape of the dose curve; as a rule, active = well fitted activation curve with a large enough effect; inconclusive = small, poorly fitted or top-dose-only effect; inactive = no such curve, though single readings can be large or run the other way.

This test can be described thus: qHTS for Suppressors of FUS Proteinopathy: Primary screen using FUS-linked yeast assay.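 Also: plate controls were DMSO vehicle for no effect and reference control for full effect; nearly all actives have a fitted effect of over 55% in size.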 Conditions: S. cerevisiae FUS-expressing, OD600, 24 h; at 76.6 µM (top of the series). An excerpt: Several widespread neurodegenerative diseases, including Alzheimer disease, Huntington disease, Frontotemporal Lobar Degeneration (FTLD) and Amyotrophic Lateral Sclerosis (ALS), share a common pathological feature, namely accumulation of specific protein aggregates in diseased tissue. These diseases which is associated with protein misfolding (proteinopathies) have become increasingly problematic as the population ages and life expectancies are extended. Most proteinopathies are currently incurable, a situation confounded by the fact that the basis of neurodegeneration is generally poorly understood. There exists urgent and significant need to find therapeutics that can inhibit the toxicity associated with protein aggregation. A novel approach to understand the underlying mechanisms of neurodegenerative diseases has recently emerged in which the disease conditions are modeled in the yeast (Saccharomyces cerevisiae), a tractable eukaryotic organism with conserved protein quality control mechanisms. Yeast offers quick and reliable genetic manipulations and can be easily tailored to high-throughput screening (HTS).
For this project, a yeast model of the FUS proteinopathies (a spectrum of neurodegenerative diseases that include ALS and a subtype of FTLD) was generated and employed. The cytoplasmic accumulation of the DNA/RNA-binding protein FUS (also known as TLS) is causative to both familial and sporadic forms of ALS and FTLD. This yeast model recapitulates neuronal pathology by showing severe cytotoxicity associated with cytoplasmic accumulation of FUS aggregates and a specific interaction between FUS and TDP-43, another ALS-associated protein. […] Specifically, the cellular accumulation of misfolded FUS that disrupts RNA homeostasis in both yeast and higher eukaryotes. This model was validated to be suitable for quantitative HTS (qHTS) use for finding genetic or chemical factors that restore growth. […] Identified compounds that inhibits FUS-yeast toxicity is flagged, re-acquired, and validated for further investigation and optimization.
NIH Chemical Genomics Center [NCGC]
NIH Molecular Libraries Probe Production Centers Network [MLPCN]
Assay Submitter (PI): Frank Shewmaker PhD, Uniformed Services University of the Health Sciences
Compound CP55940 was used as the positive control. Column 1 was treated with CP55940 titration from 92uM (final concentration, 1:2 dilution), while Column 2 was treated with top dose 92uM. Columns 3 and 4 were treated with DMSO only as negative control to assess background and noise signal.
Four hundred fifty microliter of cultured yeast (in 20mL rich medium) provided by Dr. Shewmaker lab was incubated at 30C at 99% humidity for 3hr. The culture was then spun down at 4000rpm for 5min and the cell pellet was resuspended in 2mL of Sdmin Media + ALU(330) + 2.5% Raffinose. One hundred microliter of the suspension was added to 900uL of water and OD of the solution was obtained. Twenty mL of responding medium (provided by Shewmaker lab) + 2.5% raffinose was added to ensure cell density of 0.1; the solution was incubated overnight. Working cell solution (FUS-yeast in Sdmi + Sdmi + 1X ALU + 2% galactose media) was prepared (final OD at 0.005) and 3uL was dispensed in a 1536-well Aurora high based clear bottom assay plates. Controls and library compounds (at various final concentrations from 40uM to 0.32uM) were added using a 1536-well pin array using the Kalypsys pin-tool. The plates were then incubated for 24hrs in a cell-culture incubator (30C; 99% humidity). Absorbance at 600nm was then read using the PerkinElmer ViewLux plate reader.
(In general: In qHTS, concentration-response curves come from the screen itself.)
For the compound `COc1ccccc1OP(C)(=O)Nc1c(C)cccc1C` (configuration not stated), the growth rescue (activation) is inactive: 7.46%. As for `CN1CCCCC1COC(=O)C1(O)c2ccccc2CCc2ccccc21` (configuration not stated), the growth rescue (activation) is inactive: 7.31%.

With `CP(=O)(Nc1ccc(SC(F)(F)F)cc1)Oc1ccccc1` (configuration not stated), the growth rescue (activation) was inactive: 44.4%.

Turning to `CCCOc1ccc(NP(C)(=O)Oc2ccc(Cl)cc2)cc1` (configuration not stated), the growth rescue (activation) is inactive: 28.5%.

Take `COc1ccc(-c2ccccn2)cc1.O=[N+]([O-])c1cc([N+](=O)[O-])c(O)c([N+](=O)[O-])c1`: the growth rescue (activation) is inactive: -5.99%. Turning to `O=[N+]([O-])c1cc([N+](=O)[O-])c(Nc2nnnn2CCO)c([N+](=O)[O-])c1`, the growth rescue (activation) is inactive: -12.2%. `CC1=C2N=C(C=C3N=C(C(C)=C4[N-][C@@](C)([C@@H]5N=C1[C@](C)(CCC(=O)NC[C@@H](C)OP(=O)([O-])O[C@H]1[C@@H](O)[C@@H](n6cnc7cc(C)c(C)cc76)O[C@@H]1CO)[C@H]5CC(N)=O)[C@@](C)(CC(N)=O)[C@@H]4CCC(N)=O)[C@@](C)(CC(N)=O)[C@@H]3CCC(N)=O)C(C)(C)[C@@H]2CCC(N)=O.[C-]#N.[Co+3]`: the growth rescue (activation) is inactive: -16.5%. Consider `O=[N+]([O-])c1cc([N+](=O)[O-])c(-c2cnn(-c3ccccc3)c2)c([N+](=O)[O-])c1`, for which the growth rescue (activation) is inactive: -4.52%. To `Cc1nc2ccc3ccccc3c2s1.O=[N+]([O-])c1cc([N+](=O)[O-])c(O)c([N+](=O)[O-])c1` belongs inactive: 2.65%; to `O=[N+]([O-])c1cc([N+](=O)[O-])c(-n2nnc3ccccc32)c([N+](=O)[O-])c1`, inactive: 14%.

For the compound `CN(Cc1cccnc1)C(=O)COc1ccc(Cl)c(Cl)c1.O=[N+]([O-])c1cc([N+](=O)[O-])c(O)c([N+](=O)[O-])c1`, the growth rescue (activation) was inactive: -8.11%. Turning to `CP(=O)(Nc1cccc(Br)c1)Oc1ccccc1` (configuration not stated), the growth rescue (activation) is inactive: 14.9%. With `Cc1cc(C)cc(OP(C)(=O)Nc2ccccn2)c1` (configuration not stated), the growth rescue (activation) is inactive: -19.7%.

As for `Cc1ccc(C)c(NP(C)(=O)Oc2ccccc2)c1` (configuration not stated), the growth rescue (activation) is inactive: 16.2%.

For the compound `COc1ccccc1OP(C)(=O)Nc1cccc(Br)c1` (configuration not stated), the growth rescue (activation) was inactive: 2.94%. On to `Cc1cc(C)cc(OP(C)(=O)Nc2ccc(C)cc2C)c1` (configuration not stated), for which the growth rescue (activation) was inactive: 35%. With `CCOC(=O)c1ccc(NP(C)(=O)Oc2ccccc2)cc1` (configuration not stated), the growth rescue (activation) was inactive: 7.03%.

Turning to `COc1ccccc1OP(C)(=O)Nc1ccc(C)cc1` (configuration not stated), the growth rescue (activation) was inactive: -7.94%. In the case of `Cc1ccc(NP(C)(=O)Oc2ccccc2)c(C)c1` (configuration not stated), the growth rescue (activation) is inactive: 13.2%.

As to `COc1ccccc1OP(C)(=O)Nc1cc(Cl)ccc1C` (configuration not stated), the growth rescue (activation) is inactive: 13.1%. For `COc1ccc(OP(C)(=O)Nc2cccc(F)c2)cc1` (configuration not stated) the value was inactive: -4.49%; for `Cc1cc(C)cc(OP(C)(N)=O)c1` (configuration not stated), inactive: -4.59%; for `O=[N+]([O-])c1cc([N+](=O)[O-])c(Nc2cccnc2)c([N+](=O)[O-])c1`, inactive: -34.1%. For `CC(C)(C)c1ccc(OP(C)(=O)Nc2ccc(SC(F)(F)F)cc2)cc1` (configuration not stated) the value was inactive: 28.6%. Take `Cc1cccc(C)c1OP(C)(N)=O` (configuration not stated): the growth rescue (activation) was inactive: -6.01%. In the case of `O=[N+]([O-])c1ccc2c(c1)C=Nc1ccccc1O2`, the growth rescue (activation) was inactive: 30.7%. `COc1ccccc1-c1ccccn1.O=[N+]([O-])c1cc([N+](=O)[O-])c(O)c([N+](=O)[O-])c1`: the growth rescue (activation) is inactive: -10.9%. Regarding `CCN(CC)CCCOC(=O)C(O)(c1ccccc1)c1ccccc1`, the growth rescue (activation) is inactive: -46.7%. For the compound `CCOP(C)(=S)SCC(=O)NC(C)C(=O)O` (configuration not stated), the growth rescue (activation) was inactive: -20.1%. For `CCOC(=O)c1ccc(NP(C)(=O)Oc2ccc(OC)cc2)cc1` (configuration not stated), the growth rescue (activation) is inactive: 21%. `O=[N+]([O-])c1cc([N+](=O)[O-])c(O)c([N+](=O)[O-])c1.c1ccc(Oc2ccncc2)cc1`: the growth rescue (activation) was inactive: 16.9%. `CP(=O)(Nc1ccccn1)Oc1ccc(Cl)cc1` (configuration not stated): the growth rescue (activation) was inactive: -25.3%. As to `Cc1cccc(C)c1OP(C)(=O)Nc1ccc(SC(F)(F)F)cc1` (configuration not stated), the growth rescue (activation) is inactive: -14.6%.

In the case of `CP(=O)(Nc1ccc(SC(F)(F)F)cc1)Oc1ccc(Cl)cc1` (configuration not stated), the growth rescue (activation) was inactive: 37.3%. In the case of `CP(=O)(Oc1ccccc1)OC(c1ccccc1)C(F)(F)F` (configuration not stated), the growth rescue (activation) was inactive: -8.19%. Regarding `CCc1ccc(OP(C)(=O)N2CCN(c3ccc([N+](=O)[O-])cc3)CC2)cc1` (configuration not stated), the growth rescue (activation) was inactive: 36%.

Take `CP(=O)(NC(=O)Nc1ccccc1)Oc1ccccc1` (configuration not stated): the growth rescue (activation) was inactive: -2.97%. For the compound `Cc1cc(C)cc(OP(C)(=O)Nc2ccc(SC(F)(F)F)cc2)c1` (configuration not stated), the growth rescue (activation) is inactive: 14.5%.

For `CP(=S)(Nn1cnnc1)Oc1ccccc1` (configuration not stated), the growth rescue (activation) was inactive: -7.3%. For `COc1ccccc1OP(C)(=O)Nc1ccccc1` (configuration not stated) the value was inactive: 18.7%; for `CP(=O)(Nc1ccccc1Br)Oc1ccccc1` (configuration not stated), inactive: 5.13%. Take `Nc1ccc2c(ccc3cccnc32)n1.O=[N+]([O-])c1cc([N+](=O)[O-])c(O)c([N+](=O)[O-])c1`: the growth rescue (activation) was inactive: -3.02%.
